# Screens (PubChem BioAssay)
# Only a selection was taken, and hits are over-represented in it overall.
# Rango-impB inh: inhibitors of Rango-importin beta complex formation; Rango CFP/YFP FRET sensor + importin beta, 45 min; 0.031% of 340,000 active; Q14974; AID 540263; Potency, µM (top dose mostly 92.2 µM), without a hit: at the top dose inhibition of complex formation;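 further: potency means the concentration at half of the fitted maximal effect; 0% = DMSO wells and 100% = buffer wells lacking importin beta; nearly all actives have a fitted effect of over 15% in size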
#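 Inhibition scored from the CFP 486 nm/YFP 530 nm FRET ratio 45 min after adding 0.125 microM importin beta to 50 nM Rango biosensor preincubated 5 min with compound (room temperature, PBS with DTT, Tween-20, BSA). No-importin wells as positive control.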
# Rango release inh: prevents RanGTP from dissociating the Rango-importin beta complex | AID 540253 | Biochemical FRET Rango-importin beta, RanGTP-induced dissociation | Potency, µM (highest dose often 46.1 µM), for inactives: at the top dose activity change, negative = inhibition | 0.071% of 340,000 active; further: potency means the concentration at half of the fitted maximal effect; % of control where 0% means no effect; nearly all actives have a fitted effect of over 45% in size
#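 Rango FRET biosensor (snurportin-1 IBB flanked by N-terminal EYFP and C-terminal CFP10) at 0.1 uM, with 0.25 uM importin beta in PBS, 1mM DTT, 0.02% Tween-20, 0.1% BSA. 0.6 uM Ran, 2mM GTP and 0.2 uM RCC1 were then added for 45 min at room temperature. Inhibition read as loss of FRET rise.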
# ClpP mod: qHTS Assay for Activators of ClpP. 1.9% of 340,000 active. AID 651965, 2013. purified B. subtilis ClpP, FRET peptide cleavage, 20 min. Potency, µM (titrated, usually from 57.5 µM), for the others: top-dose activity change, negative = active; active means well fitted falling curve with a large enough effect; inconclusive means small, poorly fitted or top-dose-only effect; inactive means no such curve, though single readings can be large or run the other way; further: potency means the concentration at half of the fitted maximal effect; the source files actives as falling curves though it sought activators and does not explain the sign; nearly all actives have a fitted effect of over 65% in size
#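 FRET quenching reversal measured ClpP activation: 10 microg/mL B. subtilis ClpP at pH 8 with the FRET-FV decapeptide, read at 430 nm after 320 nm excitation. The 20-min minus 0-min signal was scaled between DMSO/no-enzyme wells and ADEP (5.8 microM final).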
# MBNL1 CUG block: inhibitors of human MBNL1 binding to CUG repeat RNA. Q9NR56. TR-FRET MBNL1-His/biotin-(CUG)12 binding, 665/545 ratio. Potency, µM (series often up to 57.5 µM), for the others: top-dose activity change, negative = inhibition, usual class: inhibitors. 0.036% of 280,000 active. AID 2675; active means well fitted inhibition curve with a large enough effect in the signal ratio, with a control signal flat, not every such curve was filed as active; inconclusive means small, poorly fitted or top-dose-only effect, or effect the other way, or a change in a side signal; inactive means no such curve, though single readings can be large or run the other way; the % refers to the signal ratio; further: potency means the concentration at half of the fitted maximal effect; on the % scale 0 is the no-effect control and ±100 the full control effect
#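 His-tagged MBNL1 binding to biotinylated (CUG)12 RNA was measured by TR-FRET using terbium anti-His antibody (0.055 ng/ul final) and streptavidin-XL665 (5 nM final). Compounds were titrated 92 nM to 58 uM; 60 min at room temperature.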
# CBFb RUNX1 block: blocks binding between human CBF-beta and RUNX1; AlphaScreen CBFb-His/RUNX1-biotin binding, biochemical; 230,000 tested, under 10 active; Potency, µM (highest dose often 59.8 µM), for the others: top-dose activity, negative = inhibition, most hits filed as inhibitors; AID 1477; Q01196+Q13951; active means well fitted curve in the direction sought with a large enough effect; inconclusive means small, poorly fitted or top-dose-only effect, or effect the other way, or another doubt; inactive means no such curve, though single readings can be large or run the other way; further: % of control where 0% means no effect
#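 Interaction loss through any mechanism counts as activity. Pre-formed complex of His-CBF-beta and biotin-RUNX1 (30 nM apiece) is incubated with compound 15 min, then with 50 ng nickel and 50 ng streptavidin beads for 90 min before AlphaScreen detection.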
# * marks the source's active call; other numbers are inactive results; ? = inconclusive; . = no result. Unless noted, the call rests on the fitted dose curve.
ClpP mod | Rango release inh | CBFb RUNX1 block | MBNL1 CUG block | Rango-impB inh | Compound
22µM* | -5% | . | 1% | -4% | CC(=O)c1cccc(NC(=O)c2ccc(NC(=O)CC3SC(N4CCCCC4)=NC3=O)cc2)c1 (stereo unspecified)
2% | 11% | 4% | ? | 46µM* | CC(C)(C)c1cc(=O)n(-c2ccccc2)[nH]1
. | 11% | . | . | 3% | O=c1cc(-c2ccccc2)[nH]n1-c1ccccc1
28µM* | 4% | 2% | -1% | 0% | CSC(=NNC(=O)c1ccc(O)cc1)SC
-15% | . | . | . | . | O=C(Cc1ccc(NC(=O)N2CCSc3ncccc32)cc1)NCc1ccccc1Cl
32µM* | . | . | . | . | Cc1ccc(NC(=O)c2ccc(NC(=O)N3CCSc4ncccc43)cc2)cc1Cl
-13% | . | . | . | . | Cc1ccc(NC(=O)c2cccc(NC(=O)N3CCSc4ncccc43)c2)cc1F
28µM* | . | . | . | . | O=C(NCc1ccccc1Cl)c1ccc(NC(=O)N2CCSc3ncccc32)cc1

# Molecules listed so far with a halogen:
ClpP mod | Rango release inh | CBFb RUNX1 block | MBNL1 CUG block | Rango-impB inh | Compound
-15% | . | . | . | . | O=C(Cc1ccc(NC(=O)N2CCSc3ncccc32)cc1)NCc1ccccc1Cl
32µM* | . | . | . | . | Cc1ccc(NC(=O)c2ccc(NC(=O)N3CCSc4ncccc43)cc2)cc1Cl
-13% | . | . | . | . | Cc1ccc(NC(=O)c2cccc(NC(=O)N3CCSc4ncccc43)c2)cc1F
28µM* | . | . | . | . | O=C(NCc1ccccc1Cl)c1ccc(NC(=O)N2CCSc3ncccc32)cc1

# (more compounds)
ClpP mod | Rango release inh | CBFb RUNX1 block | MBNL1 CUG block | Rango-impB inh | Compound
80% | 17% | 6% | 6% | -2% | Cc1cc(C(=O)NCc2ccccc2)c(=O)[nH]c1C
25µM* | -3% | 2% | 0% | 3% | Cc1cc(C(=O)O)c(=O)[nH]c1C
-2% | . | . | . | . | CCCCOC(=O)c1ccc(NC(=O)c2cc3c(=O)n4cccc(C)c4nc3s2)cc1
32µM* | -11% | . | -5% | -2% | COCCNC(=O)[C@@H]1CSC2c3ccccc3C(=O)N21 (stereo partly specified)
. | 7% | . | -4% | 0% | CCCCNC(=O)[C@@H]1CSC2c3ccccc3C(=O)N21 (stereo partly specified)
28µM* | -4% | 1% | 38% | 3% | COc1ccc(C(=O)OCC(N)=O)cc1[N+](=O)[O-]
13µM* | -16% | . | . | 0% | Cc1c(C(=O)N2CCC2)oc2c(F)cccc12
-3% | . | . | . | . | CCS(=O)(=O)c1nc(S(=O)(=O)c2ccc(C)cc2)c(N2CCCCCC2)s1
. | -10% | 7% | 5% | 1% | COc1cc(OC)c(OC)cc1/C=N/NC(=S)NCCN1CCOCC1
32µM* | -3% | 3% | 11% | 2% | COc1cc(OC)c(OC)cc1/C=N/NC(=S)NCC1CCCO1 (stereo unspecified)
0% | . | . | . | . | O=C1OCC2=C1C(c1cccc(Cl)c1)CC(=O)N2c1ccc(C(F)(F)F)cc1 (stereo unspecified)
8.9µM* | ? | 2% | 13% | -8% | CC1=C(C#N)C(c2cccnc2)C2=C(CCCC2=O)N1 (stereo unspecified)
-1% | . | . | . | . | CCCN(CCC)c1ccc(/C=C/c2ccnc3ccccc23)cc1
4% | . | . | . | . | COc1cc2nc(N3CCCCC3)nc(NC3CCN(Cc4ccccc4)CC3)c2cc1OC
28µM* | 13% | 1% | -4% | 3% | O=C(NNC1=C(C(=O)C(F)(F)F)CCC1)c1ccccc1Cl
-1% | . | . | . | . | Cc1ccc(S/C(=N/S(=O)(=O)c2ccc(Cl)cc2)c2ccccc2)cc1
-20% | -3% | 2% | 4% | 0% | Cc1ccnc(SCc2cc(=O)c(OC(=O)c3ccc(S(=O)(=O)N(C)C)cc3)co2)n1
2.8µM* | -14% | -4% | -28% | 4% | Cc1cc(C)nc(SCc2cc(=O)c(OC(=O)c3ccc(S(=O)(=O)N(C)C)cc3)co2)n1
11µM* | 3% | . | . | 1% | Cc1ccc(S(=O)(=O)N2CCCCC2)cc1NC(=O)c1cncc(Br)c1
14µM* | . | . | . | . | COc1ccc(C2=NN(S(C)(=O)=O)C(c3cn(-c4ccccc4)nc3-c3cccs3)C2)cc1 (stereo unspecified)
4% | 24% | 4% | 1% | 9% | COc1ccc(-c2nn(-c3ccccc3)cc2C2CC(c3cccs3)=NN2C(=O)CCC(=O)O)cc1 (stereo unspecified)
1% | 1% | -4% | ? | -5% | CC(C)C(=O)Nc1ccc(NC(=S)NC(=O)c2ccc([N+](=O)[O-])cc2)cc1
6.3µM* | 5% | -6% | ? | -3% | CC(=O)Nc1ccc(NC(=S)NC(=O)c2ccc([N+](=O)[O-])cc2)cc1
